Consider 10 compounds from PubChem BioAssay AID1240 (Sanford-Burnham Center for Chemical Genomics, 2008).

Chains of the proteins cited; added tags and fusions are not shown. Lines headed by an entry give the natural chain unless they say otherwise; changes in a name come on top.
UniProt Q9HD36: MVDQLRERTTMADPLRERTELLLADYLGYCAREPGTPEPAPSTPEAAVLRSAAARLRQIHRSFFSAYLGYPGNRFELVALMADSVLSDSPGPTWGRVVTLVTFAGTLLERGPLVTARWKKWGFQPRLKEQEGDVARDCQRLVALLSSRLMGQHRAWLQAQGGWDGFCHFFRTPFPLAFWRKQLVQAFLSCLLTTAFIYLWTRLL

This is a selection; strong and weak results do not stand in their true shares.

The experiment concerns the target Bcl-2-like protein 10 (Homo sapiens) (UniProt Q9HD36). The experiment can be described thus: Phenotype converters, Bcl-B/TR3 peptide binding displacement, primary biochemical FP (AID 1240).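 Also: 0% = Bcl-B with tracer peptide and DMSO and 100% = tracer peptide lacking Bcl-B.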 Particulars: GST-Bcl-B / FITC-TR3 peptide fluorescence polarization; stronger effect = higher value; compound at 3.75 mg/L. A general note: Fluorescence polarisation rises when a labelled molecule tumbles more slowly, as on binding a larger partner.
With `CCCCOP(=O)(OCCCC)SC`, the displacement was -9.9%. Under `COC(=O)NC(Sc1ccc(Cl)cc1)C(Cl)Cl` (stereo not given) stands 12.4%. Under `O=CNC(Sc1nc2ccccc2o1)C(Cl)(Cl)Cl` (stereo not given) stands -4.1%; under `CCCCSP(=O)(OCC(C)C)OCC(C)C`, 4.4%. Take `CCOC(=O)NC(Sc1nc2ccccc2o1)C(Cl)(Cl)Cl` (stereo not given): the displacement is -18.7%. Take `Cc1cc(C)nc(SC(NC(=O)c2ccccc2)C(Cl)(Cl)Cl)n1` (stereo not given): the displacement is -12%. For `Cc1ccc(SC(NC(=O)c2ccccc2)C(Cl)Cl)cc1` (stereo not given), the displacement amounted to 12.4%. Turning to `O=C(CF)NC(Sc1ccc(Cl)cc1)C(Cl)(Cl)Cl` (stereo not given), the displacement was 4.4%. `O=C(NC(SC1=NCCS1)C(Cl)(Cl)Cl)c1ccc(I)cc1` (stereo not given): the displacement worked out at 0%. On to `COC(=O)c1ccc(OP(=O)(Oc2ccc(Cl)cc2C)SCC(C)C)cc1` (stereo not given), for which the displacement came to 6.3%.
